Measurements from US20030059763A1, “Immunoglobulin class switch recombination” (priority 2001, published 2003).

Assays:
[1] = system: Ramos 2G6 cells stably transfected with XF-1; assay: Substrate switch recombination (SSR), GFP positive cells by FACS, construct XF-1; assay type: cell-based, human; conditions: XF-1 cells; cytokines alone or in combination with CD40 mAb
Text: The backbone of our switch substrate contained 1.6 Kb of the human Sμ (Zhang and Cheah, 2000, supra) and 1.8 Kb of the human Sγ2 regions (Mills et al, 1995, supra) under the transcriptional control of the CMV (pCMV) and the SV40 promoters (pSV40) respectively. A RSV LTR enhancer/promoter (pRC/RSV-LTR) and a GFP gene under the control of an internal ribosome entry site (IRES) were interposed between Sμ and Sγ2 in the reverse transcriptional orientation (FIG. 1A). Thus, the GFP gene will not be expressed within the gennline configuration of the construct. […] Since the GFP gene is expressed only after the switch recombination (recombination or inversion, FIG. 1A) between the Sμ and Sγ2, switch recombination can be monitored in the cultured living cells in “real-time” by fluorescence microscopy. Furthermore, the frequency of switch recombination can be quantitatively measured by flow cytometry.
To test the potential roles of DNA sequences that may control or regulate the processes involved in switch recombination, the DNA fragments of interest were engineered into the basic switch construct (XF-1) to generate a series of modified switch constructs as diagrammed in the FIG. 1B. […] The integrity and copy number of the constructs were determined by Southern Blot analysis and PCR. […]

Ramos 2G6/XF-5a.1 cells = assay: Substrate switch recombination (SSR), GFP positive cells by FACS, construct XF-5a; assay type: cell-based, human; conditions: XF-5a / XF-5a.1 cells; antibodies 1 μg/ml, cytokines 5 ng/ml alone or with CD40 mAb
Text: pXF-5a: A PCR amplified 356 bp fragment containing Iε exon and its 5′ promoter region (pIε) was inserted into Xho I and Xba I sites in pXF-1.
The backbone of our switch substrate contained 1.6 Kb of the human Sμ (Zhang and Cheah, 2000, supra) and 1.8 Kb of the human Sγ2 regions (Mills et al, 1995, supra) under the transcriptional control of the CMV (pCMV) and the SV40 promoters (pSV40) respectively. A RSV LTR enhancer/promoter (pRC/RSV-LTR) and a GFP gene under the control of an internal ribosome entry site (IRES) were interposed between Sμ and Sγ2 in the reverse transcriptional orientation (FIG. 1A). Thus, the GFP gene will not be expressed within the gennline configuration of the construct. […] Since the GFP gene is expressed only after the switch recombination (recombination or inversion, FIG. 1A) between the Sμ and Sγ2, switch recombination can be monitored in the cultured living cells in “real-time” by fluorescence microscopy. Furthermore, the frequency of switch recombination can be quantitatively measured by flow cytometry. […]
The expression of GFP in cell lines stably transfected with switch vectors following various stimulated culture conditions was measured by either single- or dual-color flow cytometry (FACS Core laboratory, UCLA). The data were analyzed with FCS express software (De Novo software Inc, Thornhill, Ontario, Canada).

IL-2: cytokine
effect on SSR frequency [1]: did not increase | effect on SSR (Ramos 2G6/XF-5a.1 cells): did not increase
